In patent US7262211B2:

Legend:
Urokinase (Abbokinase) = Urokinase (Abbokinase) (Homo sapiens, UniProt P00749); assay: Urokinase assay, chromogenic substrate S-2444; conditions: read-out: Ki uPA; Ki calculated from IC50; 30 minute incubation, HBSA buffer
Protocol: (§1) The ability of compounds of the present invention to act as selective inhibitors of urokinase catalytic activity was assessed by determining the concentration of test compound which inhibited the activity of this enzyme by 50%, (IC50), and comparing this value to that determined for all or some of the following related serine proteases: recombinant tissue plasminogen activator (rt-PA), plasmin, activated protein C, chymotrypsin, factor Xa, thrombin and trypsin.
(§2) The buffer used for all assays was HBSA (10 mM HEPES, pH 7.5, 150 mM sodium chloride, 0.1% bovine serum albumin).
(§3) The assay for IC50 determinations was conducted by combining in appropriate wells of a Corning microtiter plate, 50 microliters of HBSA, 50 microliters of the test compound at a specified concentration (covering a broad concentration range) diluted in HBSA (or HBSA alone for V0 (uninhibited velocity) measurement), and 50 microliters of the enzyme diluted in HBSA. Following a 30 minute incubation at ambient temperature, 50 microliters of the substrate at the concentrations specified below were added to the wells, yielding a final total volume of 200 microliters (about 4 times Km). The initial velocity of chromogenic substrate hydrolysis was measured by the change in absorbance at 405 nm using a Thermo Max® Kinetic Microplate Reader over a 5 minute period in which less than 5% of the added substrate was utilized. The concentration of added inhibitor which caused a 50% decrease in the initial rate of hydrolysis was defined as the IC50 value. Ki may be calculated from the IC50 value.
Urokinase catalytic activity was determined using the chromogenic substrate 150 mM S-2444 (L-Pyroglutamyl-glycyl-L-arginine-p-nitroaniline hydrochloride), obtained from DiaPharma Group, Inc. Urokinase (Abbokinase), manufactured by Abbott Laboratories, was obtained from Priority Pharmaceuticals and diluted to 750 pM in the HBSA assay buffer prior to use. The assay buffer was HBS (10 mM HEPES, 150 mM sodium chloride pH 7.4) with 0.1% BSA. Ki was calculated using the IC50 value.

hTrypsin = assay: Trypsin assay, chromogenic substrate S-2222; conditions: read-out: Ki hTrypsin; Ki calculated from IC50; 30 minute incubation, HBSA buffer
Protocol: as §1, §2, §3
Trypsin catalytic activity was determined using the chromogenic substrate, S-2222 (benzoyl-L-isoleucine-L-glutamic acid-[gamma-methyl ester]-L-arginine-p-nitroanilide), which was obtained from DiaPharma Group. The substrate was made up in deionized water followed by dilution in HBSA prior to the assay in which the final concentration was 250 micromolar (about 4-times Km). Purified (3×-crystallized; TRL3) bovine pancreatic trypsin was obtained from Worthington Biochemical Corp. The enzyme was reconstituted in deionized water and diluted into HBSA prior to assay in which the final concentration was 0.5 nM.

Row | Ki (Urokinase (Abbokinase)) | Structure (SMILES) | Ki (hTrypsin)
1 | 0.1 to 0.25 µM | N=C(N)Nc1ccc(CNC(=O)Cn2cccc(NS(=O)(=O)Cc3ccc(I)cc3)c2=O)cc1 | 0.1 to 0.25 µM
2 | 0.1 to 0.25 µM | CC(C(=O)NCc1ccc(NC(=N)N)cc1)n1cccc(NS(=O)(=O)Cc2ccccc2)c1=O (centres unmarked) | 0.1 to 0.25 µM
3 | < 0.1 µM | CC(C(=O)NCc1ccc(NC(=N)N)cc1)n1cccc(NS(=O)(=O)Cc2ccc(Br)cc2)c1=O (centres unmarked) | 0.1 to 0.25 µM
4 | < 0.1 µM | CC(C(=O)NCc1ccc(NC(=N)N)cc1)n1cccc(NS(=O)(=O)Cc2ccc(I)cc2)c1=O (centres unmarked) | 0.25 to 1 µM
5 |  | N=C(N)Nc1ccc(CNC(=O)Cn2cccc(NS(=O)(=O)Cc3ccccc3)c2=O)cc1 | 0.1 to 2.5 µM
6 | 0.25 to 1 µM | CC(C(=O)NCc1ccc(NC(=N)N)cc1)n1cccc(NS(=O)(=O)c2ccc(I)cc2)c1=O (centres unmarked) | 0.1 to 0.25 µM
